Each compound was assayed on PC-9-EGFR-Del19-T790M-C797S cells (assay: Proliferation inhibition on PC-9-EGFR-Del19-T790M-C797S cells by sulforhodamine B method (SRB method)). Conditions: read-out: PC-9-EGFR-Del19-T790M-C797S IC50, 72 hours, 37 °C, 5% CO2, 0.5% DMSO, 5000 cells/well, EGFR Del19/T790M/C797S exogenously stably overexpressed.
Procedure: The in vitro proliferation inhibition activity of the compound on PC-9-EGFR-Del19-T790M-C797S cells where Del19/T790M/C797S triple mutation exists in exogenously stably overexpressed EGFR protein of human non-small cell lung cancer PC-9 was determined by sulforhodamine B method (SRB method).
Cell source: PC-9-EGFR-Del19-T790M-C797S cells were purchased from Nanjing Cobioer Biosciences Co., Ltd.
PC-9-EGFR-Del19-T790M-C797S cells were cultured in an RPMI1640 complete medium containing puromycin (2 g/ml) and 10% fetal bovine serum. PC-9-EGFR-Del19-T790M-C797S cells in a logarithmic growth phase were taken, seeded in a 96-well plate at a cell density of 5000 cells/135 μL complete culture medium/well, placed in a thermostatic incubator containing 5% CO2 at 37 °C and cultured for 24 hours to ensure complete anchorage of cells. Each compound was dissolved in dimethyl sulfoxide (DMSO) in advance to prepare a 10 mM stock solution, and then the compound was successively diluted with DMSO and the complete culture medium. The 96-well plates in which the cells were seeded were taken out, and one of the plates was used as a growth-free control group (a medium control group without cell growth at 0 hour); 15 μL of compounds with different concentrations were added to each well of other 96-well plates to achieve the final concentrations of 2500, 625, 156.25, 39.06, 9.77, 2.44, 0.61, 0.15, 0.04, and 0.01 nM, and three duplicate wells were set for each compound concentration, a negative control group (a medium control group which contained cells but had no compound added) was provided, and the concentration of DMSO in each well was 0.5%.
The culture of the reserved growth-free control group was terminated immediately, and other 96-well plates were continued to be cultured for 72 hours in the thermostatic incubator containing 5% CO2 at 37 °C before culture termination. The method for culture termination was as follows: each well was added with 50 μL of pre-cooled (4 °C) 50% trichloroacetic acid aqueous solution, placed and fixed for 1 hour at 4 °C, washed with purified water for at least 5 times, and dried naturally in the air or dried in an oven at 60 °C.
A 4 mg/mL SRB solution was prepared by purified water containing 1% glacial acetic acid; 100 μL was added in each well, stained for 1 hour at room temperature, with the supernatant discarded, washed for at least 5 times with 1% glacial acetic acid to remove non-specific binding, and dried for future use. […]
GraphPad Prism 8.3 software was used for data analysis, and non-linear S-curve regression was used for fitting the data to obtain a dose-effect curve, from which an IC50 value was calculated, and the results are shown in Table 1.

Row | IC50 | SMILES
1 | 173 nM | C=CC(=O)Nc1cc(Nc2nccc(-c3cn(C)c4ccccc34)n2)c(OCC(F)(F)F)nc1N(C)CCNC
2 | 147 nM | C=CC(=O)Nc1cc(Nc2nccc(-c3cn(C)c4ccccc34)n2)c(OCC(F)(F)F)nc1N(C)CC[N+](C)(C)CCC(=O)Nc1cc(Nc2nccc(-c3cn(C)c4ccccc34)n2)c(OCC(F)(F)F)nc1N(C)CCN(C)C
3 | 2930 nM | CC(=O)Nc1cc(Nc2nccc(-c3cn(C)c4ccccc34)n2)c(OCC(F)(F)F)nc1N(C)CCN(C)C
4 | 214 nM | C=CC(=O)Nc1cc(Nc2nc(-c3cn(C)c4ccccc34)cc[n+]2CCC(=O)Nc2cc(Nc3nccc(-c4cn(C)c5ccccc45)n3)c(OCC(F)(F)F)nc2N(C)CCN(C)C)c(OCC(F)(F)F)nc1N(C)CCN(C)C

From patent US20260382608A1, “A CLASS OF PYRIMIDINE COMPOUNDS, AND PREPARATION METHOD THEREFOR AND USE THEREOF” (published 2026)
